TDP1 cell CPT – growth inhibition of DT40 Tdp1-/-;hTDP1 cells with camptothecin (screen for TDP1 inhibitors); chicken DT40 Tdp1-/-;hTDP1 cells + 20 nM CPT, ATP luminescence, 48 h; Potency, µM (highest dose often 46.2 µM), inactives show at the highest dose activity change, negative = growth inhibition, actives largely listed as inhibitors; actives 12% (n = 420,000); AID 686979; further: potency means the concentration at half of the fitted maximal effect; on the % scale 0 is the no-effect control and ±100 the full control effect; nearly all actives have a fitted effect of over 55% in size
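Chicken DT40 Tdp1-/- cells stably complemented with human TDP1 were seeded at 400 cells/well in medium containing 20 nM camptothecin, exposed to pin-transferred compounds, and grown at 37 °C for at least 48 hr. Viability was read as ATP luminescence.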
TDP1 cell noCPT – qHTS for Inhibitors of human tyrosyl-DNA phosphodiesterase 1 (TDP1): qHTS in cells in absence of CPT | DT40 Tdp1-/- hTDP1 cells, no CPT, ATP luminescence, 48 h | Potency, µM (doses to about 46.2 µM), without a hit: top-dose activity change, negative = growth inhibition, most hits filed as inhibitors | actives 15% (n = 420,000) | AID 686978, 2013; further: potency means the concentration at half of the fitted maximal effect; on the % scale 0 is the no-effect control and ±100 the full control effect; nearly all actives have a fitted effect of over 55% in size
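Compound effects on proliferation are scored in DT40 Tdp1-/-;hTDP1 cells in the absence of CPT. ATP levels (CellTiter-Glo luminescence) are recorded after a ≥48 hr, 37 °C incubation.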
uPA surface inh – cell surface uPA generation inhibition; cell surface uPA generation assay, qHTS; AID 540303; Potency, µM (highest dose often 38.3 µM), inactives show at the top dose activity change, negative = inhibition, hits mostly inhibitors; actives 0.31% (n = 330,000); active means well fitted inhibition curve with a large enough effect; inconclusive means small, poorly fitted or top-dose-only effect; inactive means no such curve, though single readings can be large or run the other way; tested in mouse RAW 264.7 cells; further: potency means the concentration at half of the fitted maximal effect; on the % scale 0 is the no-effect control and ±100 the full control effect; nearly all actives have a fitted effect of over 55% in size
TDP1 block – blocks human tyrosyl-DNA phosphodiesterase 1; Q9NUW8; recombinant TDP1, AlphaScreen DNA substrate cleavage; Potency, µM (highest dose often 130 µM), without a hit: at the top dose activity change, negative = inhibition, actives largely listed as inhibitors; actives 0.28% (n = 350,000); further: potency means the concentration at half of the fitted maximal effect; on the % scale 0 is the no-effect control and ±100 the full control effect; nearly all actives have a fitted effect of over 40% in size
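Enzyme-compound mixtures sat 15 min at room temperature, followed by a 5 min reaction with 15 nM final substrate and 10 min with AlphaScreen beads. Recombinant human Tdp1 was used at 1 nM final.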
miR-21 reporter – miR-21 reporter, rising signal | AID 2288 | HeLa miR-21 FLuc reporter, luciferase, 48 h | 340,000 tested, under 10 active | Potency, µM (doses to about 38.3 µM), for inactives: at the top dose reporter change, positive = more light; active = well fitted rising curve with a large enough effect; inconclusive = small, poorly fitted or top-dose-only effect; inactive = no such curve, though single readings can be large or run the other way;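 note: % of control where 0% means no effect; miR-21 action dims this reporter so a rising signal means less miR-21 action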
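Luminescence from a firefly luciferase reporter carrying a miR-21 binding site downstream, stably expressed under a CMV promoter in HeLa cells that make miR-21 endogenously, reports miRNA modulation after 48 h compound exposure up to approximately 40uM final.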
Starred values were filed as active, the others as inactive; [ ] = another dose, or the depositor's remark. Rows were chosen to be rich in hits. Some 16% of all compounds tested hit in one or more screens of this group. Unless noted, the call rests on the fitted dose curve; in most records, active means well fitted curve in the direction sought with a large enough effect; inconclusive means small, poorly fitted or top-dose-only effect, or another doubt; inactive means no such curve, though single readings can be large; an effect the other way counts as inactive or inconclusive.

Screening CC(=O)c1ccc(-c2c(C)cc3oc(=O)cc(-c4ccccc4)c3c2C)cc1 returned TDP1 cell CPT 18µM*, TDP1 cell noCPT 23µM*, uPA surface inh -17% and TDP1 block 1%[56.1 µM].
For O=C(NNS(=O)(=O)c1ccc(F)cc1)C1CCN(S(=O)(=O)c2ccccc2)CC1 the results were TDP1 cell CPT 6%, TDP1 cell noCPT -7%, uPA surface inh -1%, TDP1 block 2% and miR-21 reporter 7%.
`CCn1c(/C=C/c2ccccc2)nc2ccccc21` gave TDP1 cell CPT inconclusive, TDP1 cell noCPT 26µM*, uPA surface inh inconclusive, TDP1 block -4% and miR-21 reporter -26%.
COc1ccc(/C=C/c2nc3ccccc3n2C)cc1 was read as TDP1 cell CPT 9.2µM*, TDP1 cell noCPT 8.2µM*, uPA surface inh -17%, TDP1 block 5% and miR-21 reporter inconclusive.
Screening CC(C)Cn1c(/C=C/c2ccccc2)nc2ccccc21 returned TDP1 cell CPT inconclusive, TDP1 cell noCPT inconclusive, uPA surface inh -10%, TDP1 block -8% and miR-21 reporter -29%.
Screening Cc1ccc(-n2ncc3c(NCCc4ccc(S(N)(=O)=O)cc4)ncnc32)cc1 returned TDP1 cell CPT -7%, TDP1 cell noCPT -7%, TDP1 block 10% and miR-21 reporter -29%.

A run of entries from the list above, for reference:
Screening CC(=O)c1ccc(-c2c(C)cc3oc(=O)cc(-c4ccccc4)c3c2C)cc1 returned TDP1 cell CPT 18µM*, TDP1 cell noCPT 23µM*, uPA surface inh -17% and TDP1 block 1%[56.1 µM].
For O=C(NNS(=O)(=O)c1ccc(F)cc1)C1CCN(S(=O)(=O)c2ccccc2)CC1 the results were TDP1 cell CPT 6%, TDP1 cell noCPT -7%, uPA surface inh -1%, TDP1 block 2% and miR-21 reporter 7%.

From PubChem BioAssay
